# Laboratory results reported in PMC3847553, “Kinetic properties of “dual” orexin receptor antagonists at OX1R and OX2R orexin receptors” (Frontiers in Neuroscience, 2013).
# Chains of the proteins cited; added tags and fusions are not shown.
# UniProt O43613, whole entry: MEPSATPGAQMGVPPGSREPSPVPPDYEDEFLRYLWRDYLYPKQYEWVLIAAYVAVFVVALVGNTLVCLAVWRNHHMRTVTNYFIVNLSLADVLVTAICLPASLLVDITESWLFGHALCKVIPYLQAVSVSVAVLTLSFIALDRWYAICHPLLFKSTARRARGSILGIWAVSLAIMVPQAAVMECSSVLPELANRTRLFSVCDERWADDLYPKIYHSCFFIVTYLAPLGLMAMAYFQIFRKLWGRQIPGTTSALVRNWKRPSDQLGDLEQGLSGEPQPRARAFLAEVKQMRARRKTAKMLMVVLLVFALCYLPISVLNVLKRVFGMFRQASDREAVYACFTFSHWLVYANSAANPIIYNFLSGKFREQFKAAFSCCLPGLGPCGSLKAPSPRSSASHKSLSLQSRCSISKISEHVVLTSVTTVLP
# What was measured:
# human OX1R = human OX1R (Homo sapiens, UniProt O43613); test: FLIPR orexin A-stimulated calcium accumulation, human OX1R; assay type: cell-based; parameters: expressed in transfected cells; host or cells: CHO; cells from GNF, San Diego; conditions: pKi, CHO cells
# [1] = ref Farkas, 2013; cited from earlier work
SMILES,Ki (human OX1R; antagonist incubation 30 min) [nM],Ki (human OX1R; antagonist incubation 1 h) [nM],Ki (human OX1R; antagonist incubation 2 h) [nM],Ki (human OX1R; antagonist incubation 4 h) [nM],FDA conclusion on safety [1]
Cc1ccc(-n2nccn2)c(C(=O)N2CCN(c3nc4cc(Cl)ccc4o3)CC[C@H]2C)c1 [Suvorexant],4.07,1.82,1.78,1.86,not considered safe at doses higher than 20 mg
CNC(=O)[C@@H](c1ccccc1)N1CCc2cc(OC)c(OC)cc2[C@@H]1CCc1ccc(C(F)(F)F)cc1 [Almorexant],14.5,18.6,17.8,17.8,–
